Assay [1] has as its system AC5. The assay is described as follows: Inhibition of recombinant AC5 (baculovirus overexpression system). The class given is biochemical.
Assay [2] deals with H9C2 cells. The assay is described as follows: cAMP accumulation in H9C2 cells. It counts as cell-based.

SMILES strings stand for the structures.

With `Nc1ncnc2c1ncn2C1CCC(C(=O)NO)C1` (single isomer, unassigned), in assay [1], the selectivity ratio between AC5 and AC2 amounted to 207. Moreover, in assay [2], the “inhibition of cAMP accumulation in intact H9C2 cells” value is “inhibited cAMP accumulation”.

Source of the values: patent publication US8440640B2, “Methods and compositions for treating obesity and related disorders” (University of Medicine and Dentistry of New Jersey, priority 2008, dated 2013).
